“And” between values parts separate entries of the source, which are not always exact repeats. Equal values may be shown once. The entries are a selection whose mix differs from that of the whole data set. The source made the active and inactive calls. Calls come from the whole dose curve; as a rule, active = well fitted activation curve with a large enough effect; inconclusive = small, poorly fitted or top-dose-only effect; inactive = no such curve, though single readings can be large or run the other way.
assay: qHTS for Inducers of the Endoplasmic Reticulum Stress Response (ERSR) in Human Glioma: qHTS; details: U87-MG GRP78 promoter luciferase reporter, 16 h; active compounds read high; note: % of control where 0% means no effect; nearly all actives have a fitted effect of over 35% in size

| SMILES | activation |
| --- | --- |
| O=P1(Nc2nc3ccc(Cl)cc3s2)COc2ccccc2O1 (centres undefined) | inactive: 0.42% |
| CC(C)(C)C(=O)NC(Sc1ccccc1)C(Cl)(Cl)Cl (centres undefined) | inactive: -6.24% |
| CCc1cc(O)c([N+](=O)[O-])c(C)c1[N+](=O)[O-] | inactive: -1.13% |
| CCC(=O)N1C2C3N(C(=O)CC)C1C1N(C(=O)CC)C(C(N1C(=O)CC)N3C(=O)CC)N2C(=O)CC | inactive: -2.62% |
| CN(C(=O)Cc1ccc(Cl)c(Cl)c1)[C@@H]1CCCC[C@@H]1N1CCCC1 | inactive: 0.265% |
| O=C(OC1CN2CCC1CC2)c1ccccc1 (centres undefined) | inactive: -3.49% and inactive: -3.25% |
| Cc1ccc(OP(=O)(Nc2ccccn2)Oc2ccc(C)cc2)cc1 | inactive: 0.0171% |
| CC(=O)NC(SC(=S)N(CC(C)C)CC(C)C)C(Cl)(Cl)Cl (centres undefined) | inactive: 2.9% |
| COC(=O)c1cc2c(s1)N=C(c1ccccc1)N(C)P2(=O)N1CCOCC1 (centres undefined) | inactive: -0.593% |
| O=c1c2cc([N+](=O)[O-])ccc2[nH]c2c([N+](=O)[O-])cc([N+](=O)[O-])cc12 | inactive: -6.38% |
| CN(C)C(=O)Oc1noc2ccccc12 | inactive: -8.43% |
| CC(NC(=O)COC(=O)C(O)(c1ccccc1)c1ccccc1)c1ccccc1 (centres undefined) | inactive: -5.79% |
| Cc1ccccc1OP(=O)(Nc1ccccn1)Oc1ccccc1C | inactive: -6% |
| O=[N+]([O-])c1cc([N+](=O)[O-])c2nc[nH]c2c1 | inactive: -3.09% |
| Cc1ccc(NP(=O)(Oc2cccc(C)c2)Oc2cccc(C)c2)nc1 | inactive: 3.55% |
| c1ccc(-c2nn[nH]n2)c(-c2nn[nH]n2)c1 | inactive: -4.05% |
| CCNC(=S)/N=C(\N)N[N+](=O)[O-] | inactive: -3.95% |
| O=C(NC1CCS(=O)(=O)C1)NP(=S)(Oc1ccccc1)Oc1ccccc1 (centres undefined) | inactive: -0.915% |
| O=P1(N(CCCl)CCCl)OCCC2CCCCN21 (centres undefined) | inactive: 0.33% |
| O=[As](O)(c1ccccc1)c1ccc(O)cc1 | inactive: -2.72% |

| SMILES | activation |
| --- | --- |
| O=[N+]([O-])c1ccc(O)c(/C=N/Nc2ccc([N+](=O)[O-])cc2[N+](=O)[O-])c1 | inactive: -2.69% |
| O=[N+]([O-])c1ncn(CCn2cnc([N+](=O)[O-])n2)n1 | inactive: 0.457% |
| CC(=O)NC(SC(=S)N(C)C)C(Cl)(Cl)Cl (centres undefined) | inactive: 2.06% |
| O=C(OC1CN2CCC1CC2)c1cccc(Cl)c1 (centres undefined) | inactive: -1.87% |
| C(Cc1nn[nH]n1)Cc1nn[nH]n1 | inactive: -2.12% |
| Nc1ccc([As](=O)(O)c2ccc([N+](=O)[O-])cc2)cc1 | inactive: -2.44% |
| O=P(Nc1ccccn1)(c1ccc(Br)cc1)c1ccc(Br)cc1 | inactive: -0.56% |
| CN(C)C1(CNC(=O)c2ccc(Cl)c(S(N)(=O)=O)c2)CCCCC1 | inactive: -5.82% |
| COc1ccc(N)c([N+](=O)[O-])c1[N+](=O)[O-] | inactive: 5% |
| Nc1ccc(CCCCOc2ccccc2)cc1 | inactive: -0.915% |
| CN(C(=O)Cc1ccccc1)[C@H]1CC[C@@]2(CCCO2)C[C@@H]1N1CCCC1 | inactive: -2.74% |
| Cc1cc([N+](=O)[O-])cc([N+](=O)[O-])c1O | inactive: 0.871% |
| C[C@H]1OP(=O)(Oc2ccccc2)[C@H](O)[C@H](O)[C@H]1N=[N+]=[N-] (some centres undefined) | inactive: -1.07% |
| O=P(Nc1nc2ccccc2s1)(c1ccccc1)c1ccccc1 | inactive: 1.2% |
| COc1cccc([N+](=O)[O-])c1[N+](=O)[O-] | inactive: -11.6% |
| CC(C)C(=O)NC(Sc1ccccc1)C(Cl)(Cl)Cl (centres undefined) | inactive: -3.46% |
| O=P(Nc1nccs1)(c1ccccc1)c1ccccc1 | inactive: -1.04% |
| c1nnnn1CCn1cnnn1 | inactive: -1.48% |
| CCC(C)(OOC(C)(C)C)OOC(C)(C)C | inactive: 3.16% |

Reference: PubChem BioAssay AID602332 (National Center for Advancing Translational Sciences (NCATS), 2012)
